{
  "sequences": {"note": "Amino acid sequences for entries named in this document (tags omitted). Residues count along the entry.", "UniProt Q695T7, whole entry": "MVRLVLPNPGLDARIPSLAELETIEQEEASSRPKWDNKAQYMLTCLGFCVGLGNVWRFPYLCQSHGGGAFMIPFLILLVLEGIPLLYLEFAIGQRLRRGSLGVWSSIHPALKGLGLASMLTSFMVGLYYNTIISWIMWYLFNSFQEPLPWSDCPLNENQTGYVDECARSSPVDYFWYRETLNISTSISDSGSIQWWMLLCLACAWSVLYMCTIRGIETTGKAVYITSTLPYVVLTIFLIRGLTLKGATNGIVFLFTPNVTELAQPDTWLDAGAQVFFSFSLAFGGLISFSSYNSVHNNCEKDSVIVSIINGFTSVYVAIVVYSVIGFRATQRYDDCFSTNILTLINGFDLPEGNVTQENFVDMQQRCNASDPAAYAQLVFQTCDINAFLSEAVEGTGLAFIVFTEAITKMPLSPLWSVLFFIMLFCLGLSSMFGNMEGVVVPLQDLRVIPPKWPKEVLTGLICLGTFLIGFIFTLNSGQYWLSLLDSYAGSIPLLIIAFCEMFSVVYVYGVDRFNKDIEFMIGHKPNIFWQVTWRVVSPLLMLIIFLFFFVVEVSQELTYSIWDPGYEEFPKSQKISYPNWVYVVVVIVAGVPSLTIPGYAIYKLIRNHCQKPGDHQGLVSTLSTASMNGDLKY", "UniProt Q9HBJ8, 15-222 partner limits assumed": "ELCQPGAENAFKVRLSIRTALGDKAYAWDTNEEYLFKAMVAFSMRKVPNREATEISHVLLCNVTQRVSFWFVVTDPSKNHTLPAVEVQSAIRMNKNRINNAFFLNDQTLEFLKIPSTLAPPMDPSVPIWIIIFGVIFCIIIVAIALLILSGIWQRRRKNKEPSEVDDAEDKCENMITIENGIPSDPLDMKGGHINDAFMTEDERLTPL"},
  "source": "patent US20260184693A1",
  "about": "“INHIBITORS OF SOLUTE CARRIER FAMILY 6A MEMBER 19 (SLC6A19) AND METHODS OF USE THEREOF” (Maze Therapeutics, Inc., priority 2022, published 2026)",
  "biological_target": "human SLC6A19 (Homo sapiens, UniProt Q695T7)",
  "test": "Example B2: 13C6,15N-isoleucine uptake, RapidFire mass spectrometry, in CHO cells with doxycycline-inducible expression of human SLC6A19 and TMEM27",
  "settings": "read-out: SLC6A19_RapidFire Uptake Assay IC50",
  "description": "Assay ready vials of CHO cells with doxycycline inducible expression of human SLC6A19 and TMEM27 were thawed, plated in T175 flasks containing DMEM/F12 media, 10% FBS, 100 Penicillin-Streptomycin, 1× UltraGlutamate, 1 mM Sodium Pyruvate, Sodium Bicarbonate (7.5 mL of 7.5% solution in 500 mL media final), […] Blasticidin, 150 µg/mL Hygromycin B Gold, and 500 µg/mL G418, and incubated (humidified, 37° C. with […]) for 48 hours. Media was then removed, flasks were washed with 20 mL of DPBS, and 5 mL of TryμLE™ Express was added to each flask to initiate cell dissociation. After 5 minutes, 10 mL of cell culture media was added to each flask and mixed. The cell suspension was collected and centrifuged for 5 minutes at 200×g. The supernatant was removed, and the pellet was resuspended in 10 mL of cell culture media. Resuspended cells were counted using a Vi-Cell. 30 μL/well (20,000 cells/well) of cell suspension was added to Poly-D-Lysine 384-well black/clear plates. Plates were incubated (humidified, 37° C. with 5% CO2) for 24 hours. To induce expression of human SLC6A19 and TMEM27, 10 μL of assay culture media containing 4 μg/mL doxycycline was added to each well. Assay plates were then incubated (humidified, 37° C. with 5% CO2) overnight. […] Peak areas were calculated using RapidFire Integrator software.",
  "note": "pIC50: −log10 of the molar value.",
  "data": [
    {"compound": "CN(C(=O)NCc1cc2cc(Cl)ccc2[nH]1)[C@@H]1CCCN(C(=O)Cn2cnnn2)C1", "values": [
      {"measurement": "pIC50", "value": 5.24}
    ]}
  ]
}
